Assay results as given in patent publication US20180355064A1.

Biological target: human EGFR on HT-29 cells (human) (UniProt P00533)
Assay: cell-based or functional assay

Substance: BEAT EGFR/CD3 antibody (bispecific antibody)
- EC50 of T cell redirected killing of HT-29 cells (RDL-MTS): 0.0706 nM
